Among the data in US11964973B2 (priority 2019, dated 2024) are IC50 and EC50 values, retold here.

The chains behind the UniProt entries cited, without tags or fusion partners. Where a name states a change or a piece, a line headed by the entry shows the natural chain unless it says otherwise.
UniProt Q13574: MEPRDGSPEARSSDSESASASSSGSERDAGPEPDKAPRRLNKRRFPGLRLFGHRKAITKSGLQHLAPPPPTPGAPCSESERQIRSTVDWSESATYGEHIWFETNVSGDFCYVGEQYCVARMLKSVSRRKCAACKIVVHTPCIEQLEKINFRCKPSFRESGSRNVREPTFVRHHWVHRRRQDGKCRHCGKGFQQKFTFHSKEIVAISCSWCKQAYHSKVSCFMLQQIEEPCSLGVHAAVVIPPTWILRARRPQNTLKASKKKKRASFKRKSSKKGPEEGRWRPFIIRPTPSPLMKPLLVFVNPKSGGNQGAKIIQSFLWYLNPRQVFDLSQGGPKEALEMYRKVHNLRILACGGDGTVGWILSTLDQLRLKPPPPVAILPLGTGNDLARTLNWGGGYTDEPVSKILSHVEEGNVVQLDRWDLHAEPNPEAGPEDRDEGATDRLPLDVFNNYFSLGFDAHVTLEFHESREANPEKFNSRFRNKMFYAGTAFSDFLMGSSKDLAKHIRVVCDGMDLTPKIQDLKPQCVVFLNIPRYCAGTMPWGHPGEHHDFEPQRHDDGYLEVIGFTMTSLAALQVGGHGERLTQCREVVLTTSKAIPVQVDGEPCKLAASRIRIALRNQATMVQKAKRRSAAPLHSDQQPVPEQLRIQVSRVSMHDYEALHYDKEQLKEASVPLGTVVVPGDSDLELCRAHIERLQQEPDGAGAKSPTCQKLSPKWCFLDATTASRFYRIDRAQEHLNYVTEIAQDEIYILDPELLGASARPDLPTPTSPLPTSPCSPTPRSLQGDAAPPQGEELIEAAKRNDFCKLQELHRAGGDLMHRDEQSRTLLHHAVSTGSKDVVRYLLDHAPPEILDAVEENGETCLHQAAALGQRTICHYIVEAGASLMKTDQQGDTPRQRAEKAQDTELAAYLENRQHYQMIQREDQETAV

In one assay the target is human DGKζ (Homo sapiens (Human), UniProt Q13574). As to the kind of experiment: biochemical. The settings on record: liposome (LIPGLO) assay.
Assay [1] relates to human venous whole blood, CD8 positive population (pERK). As to the kind of experiment: DGK human whole blood pERK assay. The class given is cell-based. As to the method:
Assay 11: DGK Human Whole Blood pERK Assay
Human whole blood ERK phosphorylation assay was performed with human venous whole blood obtained from healthy donors (drawn with Heparin as anti-coagulant). […] Heparinized human whole blood was added to the compound plate at 9 μL per well and incubated for one hour at 37° C. in a humidified 95%, air/5% CO2 incubator. After one hour of compound incubation, 1 μL of human anti-CD3 antibody (in-house) in the presence of cross-linking antibody goat anti-mouse IgG (4 μg/mL) was added to the well at 1 μg/mL final concentration for stimulation of pathway and additionally incubated for 15 minutes at 37° C. […] Samples analyzed using the Intellicyt® iQue Screener PLUS. The pERK activation was quantitated by the percentage of pERK positive population within CD8 positive population.

Setting [2] is: read-out: DGK HWB, human whole blood pERK.
The mark [3] stands for this setting: Homo sapiens, CD8 positive, read-out: DGK HWB, human whole blood pERK.

Structures are written as SMILES. Read-outs that look alike come from different tables or passages of the source. Where only a bound is given, the exact number is not on record here.

Turning to `C[C@@H]1CN(c2cc(=O)n(C)c3ccc(C#N)nc23)CC[C@H]1Oc1c(F)cccc1F` (single isomer, unassigned) [Example 126], the IC50 on human DGKζ was not below 250000 nM. For `C[C@@H]1CC(Oc2cccc(C(F)(F)F)c2)[C@@H](C)CN1c1nc(=O)n(C)c2ccc(C#N)nc12` (stereo partly drawn) [Example 253, 4-((2R,5S)-2,5-dimethyl-4-(3-(trifluoromethyl)phenoxy)piperidin-1-yl)-1-methyl-2-oxo-1,2-dihydropyrido[3,2-d]pyrimidine-6-carbonitrile], the EC50 in assay [1] (setting [2]) stood at 2300 nM. The same measure, in the same setting: the result for `C[C@@H]1CN(c2nc(=O)n(C)c3ccc(C#N)nc23)[C@@H](C)CC1Oc1cccc(C(F)(F)F)c1` (stereo partly drawn) [Example 254, 4-((2S,5R)-2,5-dimethyl-4-(3-(trifluoromethyl)phenoxy)piperidin-1-yl)-1-methyl-2-oxo-1,2-dihydropyrido[3,2-d]pyrimidine-6-carbonitrile] reads 2300 nM. With `C[C@H]1CN(c2nc(=O)n(C)c3ccc(C#N)nc23)[C@@H](C)CC1Oc1cccc(C(F)(F)F)c1` (stereo partly drawn) [Example 255, 8-((2S,5S)-2,5-dimethyl-4-(3-(trifluoromethyl)phenoxy)piperidin-1-yl)-5-methyl-6-oxo-5,6-dihydro-1,5-naphthyridine-2-carbonitrile], the EC50 in assay [1] (setting [3]) came to 2200 nM. For `C[C@H]1CN(c2nc(=O)n(C)c3ccc(C#N)nc23)[C@@H](C)CC1Oc1cccc(C(F)(F)F)c1` (stereo partly drawn) [Example 258, 8-((2S,5S)-2,5-dimethyl-4-(3-(trifluoromethyl)phenoxy)piperidin-1-yl)-5-methyl-6-oxo-5,6-dihydro-1,5-naphthyridine-2-carbonitrile], the EC50 in assay [1] (setting [2]) worked out at 1200 nM. Consider `CC1CN(c2c(C#N)c(=O)n(C)c3ccc(C#N)nc23)CCC1N(C)C(=O)c1ccc(F)cc1` (stereo not drawn) [Example 288, N-(1-(3,6-dicyano-1-methyl-2-oxo-1,2-dihydro-1,5-naphthyridin-4-yl)-3-methylpiperidin-4-yl)-N-methyl-4-(trifluoromethyl)benzamide], for which, in assay [1] (setting [3]), the EC50 is 20000 nM.
